Assay results published in EP0873133B1, “BIOLOGICALLY ACTIVE COMPOSITION COMPRISING CYCLOSPORINE” (CAMURUS AB, priority 1995, dated 2002).

Details: rat, in vivo

uptake in the small intestine: not found the high uptake
Substance: DDAVP
